Results published in PubChem BioAssay AID1051 (The Scripps Research Institute Molecular Screening Center, 2008).
The list shows a part of the results, in another mix than the full data. Active and inactive are the calls of the source. Rule as the data show it: active = TR-FRET ratio above about 2300; inactive = the rest.

Assay: TR-FRET detection interference compounds, primary screen, artefact control for PPARgamma SRC-1 recruitment agonists, biochemical, TR-FRET emission ratio (AID 1051)
Details: TR-FRET detection artefact counter-screen, at 8 µM, active compounds read high
In the case of `O=[N+]([O-])c1cc([N+](=O)[O-])c(-n2nnc3ccccc32)c([N+](=O)[O-])c1`, the TR-FRET ratio was inactive: 1650.
In the case of `CP(=O)(Nc1ccc(SC(F)(F)F)cc1)Oc1ccccc1` (stereo not given), the TR-FRET ratio was inactive: 1680.
For `CCCOc1ccc(NP(C)(=O)Oc2ccc(Cl)cc2)cc1` (stereo not given), the TR-FRET ratio was inactive: 1660.
In the case of `CN1CCCCC1COC(=O)C1(O)c2ccccc2CCc2ccccc21` (stereo not given), the TR-FRET ratio was inactive: 1580.
With `CC1=NCCc2c1[nH]c1ccccc21.O=[N+]([O-])c1cc([N+](=O)[O-])c(O)c([N+](=O)[O-])c1` the TR-FRET ratio was inactive: 2000.
With `CCOC(=O)c1ccc(NP(C)(=O)Oc2cc(C)cc(C)c2)cc1` (stereo not given) the TR-FRET ratio was inactive: 1600.
For `CP(=O)(Nc1cccc(Br)c1)Oc1ccccc1` (stereo not given), the TR-FRET ratio was inactive: 1950.
In the case of `CCN(CC)CCCOC(=O)C(O)(c1ccccc1)c1ccccc1`, the TR-FRET ratio was inactive: 1960.
In the case of `O=[N+]([O-])c1ccc2c(c1)C=Nc1ccccc1O2`, the TR-FRET ratio was inactive: 1830.
In the case of `CC(C)(C)c1ccc(OP(C)(=O)Nc2ccc(SC(F)(F)F)cc2)cc1` (stereo not given), the TR-FRET ratio was inactive: 1660.
With `Cc1cccc(C)c1OP(C)(N)=O` (stereo not given) the TR-FRET ratio was inactive: 1840.
With `Cc1cc(C)cc(OP(C)(N)=O)c1` (stereo not given) the TR-FRET ratio was inactive: 1850.
In the case of `COc1ccccc1OP(C)(=O)Nc1cc(Cl)ccc1C` (stereo not given), the TR-FRET ratio was inactive: 1840.
In the case of `COc1ccccc1OP(C)(=O)Nc1ccc(C)cc1` (stereo not given), the TR-FRET ratio was inactive: 1650.
In the case of `Cc1ccc(NP(C)(=O)Oc2ccccc2)c(C)c1` (stereo not given), the TR-FRET ratio was inactive: 1700.
In the case of `CCOC(=O)c1ccc(NP(C)(=O)Oc2ccccc2)cc1` (stereo not given), the TR-FRET ratio was inactive: 1780.
In the case of `CP(=O)(Nc1ccccc1Br)Oc1ccccc1` (stereo not given), the TR-FRET ratio was inactive: 1940.
In the case of `COc1ccccc1OP(C)(=O)Nc1ccccc1` (stereo not given), the TR-FRET ratio was inactive: 1820.
For `Cc1cc(C)cc(OP(C)(=O)Nc2ccc(SC(F)(F)F)cc2)c1` (stereo not given), the TR-FRET ratio was inactive: 1700.
For `Cc1cccc(C)c1OP(C)(=O)Nc1ccc(SC(F)(F)F)cc1` (stereo not given), the TR-FRET ratio was inactive: 1750.
For `CP(=O)(Oc1ccccc1)OC(c1ccccc1)C(F)(F)F` (stereo not given), the TR-FRET ratio was inactive: 1940.
For `CCOC(=O)c1ccc(NP(C)(=O)Oc2ccc(OC)cc2)cc1` (stereo not given), the TR-FRET ratio was inactive: 1560.
For `CCOP(C)(=S)SCC(=O)NC(C)C(=O)O` (stereo not given), the TR-FRET ratio was inactive: 2030.
With `CCc1ccc(OP(C)(=O)Nc2cccnc2)cc1` (stereo not given) the TR-FRET ratio was inactive: 1760.
With `COc1ccc(OP(C)(=O)Nc2ccc(Br)cc2)cc1` (stereo not given) the TR-FRET ratio was inactive: 2060.
In the case of `CN(C)C(=O)c1c([N+](=O)[O-])cc([N+](=O)[O-])cc1[N+](=O)[O-]`, the TR-FRET ratio was inactive: 2130.
In the case of `COc1ccccc1OP(C)(=O)Nc1ccccc1Br` (stereo not given), the TR-FRET ratio was inactive: 1610.
In the case of `CCOC(=O)c1ccc(NP(C)(=O)Oc2ccc(Cl)cc2)cc1` (stereo not given), the TR-FRET ratio was inactive: 1860.
In the case of `COc1ccc(OP(C)(=O)Nc2ccccc2Br)cc1` (stereo not given), the TR-FRET ratio was inactive: 2030.
For `Cc1cc(C)cc(OP(C)(=O)Nc2cccc(C(F)(F)F)c2)c1` (stereo not given), the TR-FRET ratio was inactive: 1740.
With `CP(=O)(OCCOc1ccccc1)OCCOc1ccccc1` the TR-FRET ratio was inactive: 1770.
For `CP(=O)(Nc1ccc(Cl)cc1Cl)Oc1ccccc1` (stereo not given), the TR-FRET ratio was inactive: 1830.
In the case of `O=[N+]([O-])c1cc([N+](=O)[O-])c(Nc2ccccn2)c([N+](=O)[O-])c1`, the TR-FRET ratio was inactive: 1780.
With `CC(C)c1ccc(OP(C)(=O)Nc2ccc(SC(F)(F)F)cc2)cc1` (stereo not given) the TR-FRET ratio was inactive: 1860.
For `O=C(OCCN1CCN(CCOCc2ccccc2)CC1)C(O)(c1ccccc1)c1ccccc1`, the TR-FRET ratio was inactive: 1560.
For `CCOC(=O)c1ccc(NP(C)(=O)Oc2ccc(F)cc2)cc1` (stereo not given), the TR-FRET ratio was inactive: 1920.
In the case of `COc1ccc(OP(C)(=O)Nc2ccc(SC(F)(F)F)cc2)cc1` (stereo not given), the TR-FRET ratio was inactive: 1770.
In the case of `COc1ccc(NP(C)(=O)Oc2ccccc2OC)cc1` (stereo not given), the TR-FRET ratio was inactive: 1870.
In the case of `O=[N+]([O-])c1cc([N+](=O)[O-])c(NCC2CCS(=O)(=O)C2)c([N+](=O)[O-])c1` (stereo not given), the TR-FRET ratio was inactive: 2040.
In the case of `Cc1ccccc1NP(C)(=O)Nc1ccccc1C`, the TR-FRET ratio was inactive: 1700.
